The chains behind the UniProt entries cited, without tags or fusion partners.
ATP-dependent Clp protease proteolytic subunit (Bacillus subtilis (strain 168)), P80244, UniProt P80244, whole entry, looked up: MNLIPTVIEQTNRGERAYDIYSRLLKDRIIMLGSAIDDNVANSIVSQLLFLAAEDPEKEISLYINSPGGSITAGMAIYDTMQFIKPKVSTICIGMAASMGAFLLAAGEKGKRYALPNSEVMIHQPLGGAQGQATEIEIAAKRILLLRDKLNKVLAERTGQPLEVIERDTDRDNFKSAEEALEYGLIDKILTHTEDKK

# An excerpt weighted towards active compounds, which were near 3.7% of everything screened.
# Nrf2 ARE act – Nrf2 pathway activation; 410,000 tested, 0.31% active; AREc32 ARE-luciferase reporter (MCF7-derived line), luminescence, 24 h; AID 624171; Potency, µM (highest dose often 46.1 µM), without a hit: at the top dose activation, most hits filed as activators; note: potency is the fitted concentration of half-maximal effect; % of control where 0% means no effect; nearly all actives have a fitted effect of over 65% in size
#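 ARE-driven firefly luciferase activity in AREc32 cells measured after a 24 hr compound exposure at 37 deg C, using Steady-Glo reagent and a 30 min room-temperature hold.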
# A549 viability – A549 cytotoxicity, counter-screen for Nrf2 inhibitors; A549 ARE-Fluc cells, CellTiter-Fluor viability, 18-24 h; Potency, µM (series often up to 46 µM), for inactives: at the top dose activity change, negative = cytotoxicity, usual class: inhibitors; 390,000 tested, 0.16% active; AID 504648; note: potency is the fitted concentration of half-maximal effect; % is set by controls: 0 for no effect and ±100 for the full control effect
#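 A549 ARE-Fluc cells in 5% FBS OPTI-MEM, 5000 cells/well, rested 2 h then exposed to compounds in concentration-response for 18-24 h at 37 °C. Viability by CellTiter-Fluor fluorescence (Ex 405/Em 525) after 30 min; luciferase luminescence (BugLite, 15 min, RT) read afterwards.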
# miR-21 reporter – raises the signal of a miR-21 reporter | AID 2288 | 340,000 tested, under 10 active | Potency, µM (series often up to 38.3 µM), without a hit: at the highest dose reporter change, positive = more light | HeLa miR-21 FLuc reporter, luciferase, 48 h; active = well fitted rising curve with a large enough effect; inconclusive = small, poorly fitted or top-dose-only effect; inactive = no such curve, though single readings can be large or run the other way;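 further: % of control where 0% means no effect; miR-21 action dims this reporter so a rising signal means less miR-21 action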
#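 HeLa cells endogenously expressing miR-21, stably carrying CMV-driven firefly luciferase with a downstream miR-21 binding site, 2000 cells/well. Titrations up to approximately 40 uM, 48 hours; luciferase luminescence read.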
# IL-2 act – activates IL-2 in a cell-based reporter assay. IL-2 activation reporter assay, cell-based qHTS; stimulated with anti-CD3/CD4/CD28 beads; in transgenic mouse T cells. activation, % (series mostly up to about 46 µM). 360,000 tested, 0.065% active. AID 652025; in the data active = activation above about 50%; inconclusive = mostly about 30% to 49%; note: 0% is about no effect
#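 Unstimulated transgenic mouse T cells, 750 per well, received compound and, after 60 minutes, anti-CD3/anti-CD4 bead plus anti-CD28 stimulation. EGFP and DsRed were quantified after 18 hours.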
# ClpP mod – qHTS Assay for Activators of ClpP; ATP-dependent Clp protease proteolytic subunit (Bacillus subtilis (strain 168)), P80244; 340,000 tested, 1.9% active; AID 651965, 2013; Potency, µM (series often up to 57.5 µM), without a hit: at the top dose activity change, negative = active; purified B. subtilis ClpP, FRET peptide cleavage, 20 min; active = well fitted falling curve with a large enough effect; inconclusive = small, poorly fitted or top-dose-only effect; inactive = no such curve, though single readings can be large or run the other way; note: potency is the fitted concentration of half-maximal effect; the source files actives as falling curves though it sought activators and does not explain the sign; nearly all actives have a fitted effect of over 65% in size
#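 FRET quenching reversal measured ClpP activation: 10 microg/mL B. subtilis ClpP at pH 8 with the FRET-FV decapeptide, read at 430 nm after 320 nm excitation. The 20-min minus 0-min signal was scaled between DMSO/no-enzyme wells and ADEP (5.8 microM final).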
# Nrf2 inh – blocks Nrf2 signaling. AID 504444. Potency, µM (highest dose often 46 µM), inactives show at the highest dose activity change, negative = inhibition, hits mostly inhibitors. A549 ARE-Fluc reporter, luciferase luminescence, 18-24 h. 360,000 tested, 2.1% active; note: potency is the fitted concentration of half-maximal effect; % is set by controls: 0 for no effect and ±100 for the full control effect; nearly all actives have a fitted effect of over 60% in size
#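 Concentration-response testing used A549 ARE_Fluc cells at 5000 cells/well. Following an 18-24 h compound incubation, viability was read by fluorescence (Ex 405/Em 525) and luciferase output by luminescence.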
# Active calls of the source: *; ? = inconclusive; / = no result. Unless noted, calls come from the whole dose curve; as a rule, active = well fitted curve in the direction sought with a large enough effect; inconclusive = small, poorly fitted or top-dose-only effect, or another doubt; inactive = no such curve, though single readings can be large; an effect the other way counts as inactive or inconclusive.
No.	mol	Nrf2 ARE act	A549 viability	miR-21 reporter
1	COc1ccc(/C=C2/SC(=S)N(CCCC(=O)Nc3ccc(O)cc3)C2=O)cc1OC	8.2%	?	-2.0%
2	Cc1ccc(/C=C2\SC(=S)N(CCC(=O)NNC(=O)c3ccccc3O)C2=O)cc1	-1.5%	-15.1%	-3.1%
3	Cc1ccc(/C=C2\SC(=S)N(CCCC(=O)NNC(=O)c3ccccc3O)C2=O)cc1	-2.6%	-3.3%	?
4	COc1ccc(/C=C2\SC(=S)N(CCCC(=O)Nc3ccc(C(=O)O)cc3)C2=O)cc1OC	-1.2%	0.0%	4.3%
5	Cc1ccc(/C=C2\SC(=S)N(CCCC(=O)NC3CCCC3)C2=O)cc1	-2.6%	7.5%	?
6	COc1cccc(CNC(=O)c2c3c(nc4ccccc24)C(=O)N(C2CCCCC2)C3)c1	4.0%	-2.8%	18.3%
7	COc1cc(Cl)c(NC(=O)c2cc3ccccn3n2)c(OC)c1	10.4%	5.4%	-70.9%
8	O=C(O)c1ccc(Nc2nc3ccccc3c3nncn23)cc1	-0.3%	-2.8%	-16.0%
9	O=C(CCCN1C(=O)/C(=C/c2ccc3c(c2)OCO3)SC1=S)Nc1cccc(C(=O)O)c1	0.1%	5.7%	-30.7%
10	O=C(CCN1C(=O)/C(=C/c2ccc3c(c2)OCO3)SC1=S)Nc1cccc(C(=O)O)c1	0.1%	-7.6%	0.1%

No.	IL-2 act	ClpP mod	Nrf2 inh
1	84.7*	-0.2%	-29.6%
2	-0.3	/	?
3	0.1	0.1%	10.3µM*
4	-4.1	-2.3%	11.3%
5	-0.4	-0.6%	10.3µM*
6	/	-2.8%	?
7	/	101.8%	14.6%
8	/	-8.3%	10.2%
9	-0.3	-0.3%	10.3µM*
10	4.6	-22.8%	1.1%

# (continued)
No.	mol	Nrf2 ARE act	A549 viability	miR-21 reporter
11	O=C(Oc1c(CN2CCOCC2)cc(Cl)c2cccnc12)c1ccc(F)cc1	2.2%	/	?
12	O=C(Oc1c(Cl)cc(Cl)c2cccnc12)c1cccs1	6.8%	?	28.9%
13	O=C(Oc1ccc(Cl)c2cccnc12)N1CCCCC1	2.3%	-3.1%	-32.9%
14	COc1ccc(C(=O)Oc2c(CN3CCOCC3)cc(Cl)c3cccnc23)cc1	17.1%	-16.5%	?
15	O=C(Oc1ccc(Cl)c2cccnc12)N1CCOCC1	-0.4%	-8.5%	-0.1%
16	O=C(Oc1c(Cl)cc(Cl)c2cccnc12)c1ccco1	11.2%	?	24.9%
17	Cc1cc(Nc2cccc(Cl)c2)nc2ccc(NC(=O)Cc3c(F)cccc3Cl)cc12	3.5%	-10.4%	11.2%
18	COc1ccc(CC(=O)Nc2ccc3nc(Nc4cccc(Cl)c4)cc(C)c3c2)cc1OC	0.4%	-7.6%	?
19	COc1ccc(Cl)cc1C(=O)Nc1ccc2nc(Nc3cccc(Cl)c3)cc(C)c2c1	0.0%	-2.2%	10.4%
20	Cc1cc(Nc2cccc(Cl)c2)nc2ccc(NC(=O)Cc3ccc(Cl)cc3)cc12	-1.7%	?	?

No.	IL-2 act	ClpP mod	Nrf2 inh
11	-1.3	-0.7%	23.1µM*
12	-3.5	3.7%	?
13	0.5	?	20.8%
14	-0.2	2.3%	-1.1%
15	2.1	31.6µM*	-2.5%
16	-0.5	-1.3%	23.1µM*
17	/	3.7%	-28.1%
18	/	3.7%	16.4µM*
19	/	3.7%	5.3%
20	/	3.7%	23.1µM*

# Going on with the list.
No.	mol	Nrf2 ARE act	A549 viability	miR-21 reporter
21	COc1ccc(-n2cc(-c3ccccc3)[nH]c2=S)cc1	4.2%	3.9%	-28.1%
22	CCCn1cnc2c(SCCc3ccccc3)nc(N)nc21	3.6%	-1.2%	/
23	CCCCn1cnc2c(SCCc3ccccc3)nc(N)nc21	1.9%	15.0%	/
24	O=C(CN1C=NS(=O)(=O)c2ccccc21)Nc1ccccc1F	-0.3%	2.3%	-4.1%
25	COC(=O)CN(C(=O)CSc1nnc(-c2cccc(OC)c2)o1)c1ccc(OC)cc1	2.0%	-2.0%	-11.5%
26	COc1ccc(-c2nnc(SCC(=O)N(C)Cc3ccccc3)o2)cc1OC	-0.3%	-12.7%	?
27	COc1ccc(-c2onc(C)c2C)cc1S(=O)(=O)N1CCc2ccccc21	1.0%	-0.7%	17.8%
28	COc1ccc(-c2cc(C)no2)cc1S(=O)(=O)N1CCc2ccccc21	0.6%	-1.0%	6.1%
29	CN1c2ccsc2/C(=N/Nc2ccc(F)cc2)CS1(=O)=O	12.6µM*	-18.0%	-47.0%
30	O=c1cc(-c2cccs2)oc2ccc(Cl)cc12	11.2µM*	-5.1%	-41.4%

No.	IL-2 act	ClpP mod	Nrf2 inh
21	-4.5	14.1µM*	12.9%
22	0.6	1.1%	?
23	0.0	28.2µM*	-9.6%
24	/	-1.2%	/
25	-0.2	15.8µM*	?
26	/	-3.5%	23.1µM*
27	/	-2.2%	18.4µM*
28	/	-1.7%	-16.4%
29	-0.3	/	?
30	-0.8	?	?

# One compound at a time (already shown). Values in the order: Nrf2 ARE act | A549 viability | miR-21 reporter | IL-2 act | ClpP mod | Nrf2 inh
# `CCCn1cnc2c(SCCc3ccccc3)nc(N)nc21` as listed: 3.6% | -1.2% | / | 0.6 | 1.1% | ?
# `COc1ccc(-c2cc(C)no2)cc1S(=O)(=O)N1CCc2ccccc21` as listed: 0.6% | -1.0% | 6.1% | / | -1.7% | -16.4%
# `COc1ccc(-n2cc(-c3ccccc3)[nH]c2=S)cc1` as listed: 4.2% | 3.9% | -28.1% | -4.5 | 14.1µM* | 12.9%
# `O=c1cc(-c2cccs2)oc2ccc(Cl)cc12` as listed: 11.2µM* | -5.1% | -41.4% | -0.8 | ? | ?

# (continued)
No.	mol	Nrf2 ARE act	A549 viability	miR-21 reporter
31	O=C(c1ccc2ccccc2c1)C1CCCN(S(=O)(=O)c2cccnc2)C1 (stereo not drawn)	5.6%	-12.7%	12.3%
32	Cc1ccc(/C(=N\O)c2oc3c(C)c4oc(=O)cc(C)c4cc3c2C)cc1	0.0%	?	-20.0%
33	CC(C)Oc1cccc(-c2cc(C(=O)NN3CCOCC3)c3ccccc3n2)c1	2.1%	-0.1%	3.8%
34	COc1ccc(Cl)cc1C(=O)NNC(=S)NC(=O)c1cc(-c2ccccc2)nc2ccccc12	4.4%	-6.7%	6.6%
35	CCCOc1ccc(C(=O)NNC(=S)NC(=O)c2cc(-c3ccc(Cl)cc3)nc3ccccc23)cc1	0.8%	-18.4%	-7.1%
36	COc1ccc(C(=O)NNC(=S)NC(=O)c2cc(-c3ccccc3)nc3ccccc23)cc1	20.9%	?	-0.5%
37	CC(C)Oc1cccc(-c2cc(C(=O)NC(=S)N(C)c3ccccc3C(=O)O)c3ccccc3n2)c1	4.0%	1.8%	-17.1%
38	Clc1ccc2c(N/N=C/c3ccccc3Br)ccnc2c1	5.2%	?	-5.3%
39	CC(C)(C)c1ccc(C(=O)C[n+]2ccccc2Cl)cc1	/	/	/
40	CCc1ccc(/C=C/c2c[nH]c3ccccc23)[n+](CC)c1	7.2%	?	?

No.	IL-2 act	ClpP mod	Nrf2 inh
31	-5.5	-1.1%	20.6µM*
32	-3.7	25.1µM*	23.1µM*
33	-5.3	-3.5%	8.6%
34	-0.8	-0.5%	?
35	3.2	0.5%	4.61µM*
36	2.1	-7.6%	18.4µM*
37	-0.3	6.31µM*	-21.5%
38	-0.2	-7.9%	10.3µM*
39	/	-18.2%	/
40	10.1	1.1%	6.51µM*

# (continued)
No.	mol	Nrf2 ARE act	A549 viability	miR-21 reporter
41	CC(=O)NC(Cc1c(F)c(F)c(F)c(F)c1F)C(=O)NCC(N)C(=O)c1ccccc1 (stereo not drawn)	/	/	/
42	C=CC(=O)Nc1cccc(Nc2nc(N[C@H]3CC[C@H](N(C)C)CC3)nc3c2ncn3C(C)C)c1	-2.8%	2.59µM*	/
43	CC(C)n1cnc2c(Nc3cccc(Cl)c3)nc(NCCCO)nc21	-4.5%	?	-3.0%
44	N#Cc1c(N2CCN(C(=O)c3ccco3)CC2)nc(-c2ccccc2)c2c1CCCC2	3.9%	?	18.0%

No.	IL-2 act	ClpP mod	Nrf2 inh
41	/	0.3%	/
42	-0.6	-4.5%	0.581µM*
43	0.6	-17.5%	?
44	-2.6	14.1µM*	18.4µM*

# Source: PubChem BioAssay (National Center for Advancing Translational Sciences (NCATS))
